Test results: US20200038438A1, “ANGSTROM SILVER INJECTION FOR CANCER INHIBITION, PREPARATION METHOD AND APPLICATION THEREOF” (Shenzhen AMCAN Medical Biotechnology Limited, priority 2018, published 2020)

How the values were obtained:
[1] = test system: human hepatocellular carcinoma cells HepG2; assay: CellTiter-Glo cell viability, 72 hours; type: cell-based; conditions: HepG2, 10 nM, duplicate wells
Source text: (§1) A first exemplary embodiment is shown a detection of the angstrom silver on a proliferation influence of human non-small cell lung cancer cells A549 and human hepatocellular carcinoma cells HepG2.
(§2) Reagents and consumables shown below: 1. HepG2, provided by HD Biosciences (Shanghai) Co., Ltd., and passed a mycoplasma detection; 2, F 12K culture medium, American Gibco, Art. No.: 21127-022; 3. EMEM culture medium, American ATCC, Art. No.: 30-2003; 4. Fetal bovine serum (FBS), American Hyclone, Art. No.: CH30160.03; 5. Penicillin-streptomycin liquid, American Invitrogen, Art. No.: CH15140-122; 6. DG-5 (25 Ang) and DG-5 solvents, DG-6 (25 Ang) and DG-6 solvents respectively provided by Shenzhen AMCAN Medical Biotechnology Limited; 7. STSP, UK Tocris, Cat#3259; 8. DMSO, American Sigma, Art. No.: D4540; 9. 96-well cell culture plate, American Corning, Art. No.: 3610; 10. CellTiter-Glo Luminescent Cell Viability Assay, American Promega, Art. No.: G7571; 11. Plate reader, American Perkin Elmer, EnVision Multilabel Plate Reader.
(§3) Cell culture medium: 1. […]
(§4) 3. […] At this time, the gradient concentration of a compound to be measured includes 150 ppm, 15 ppm, 1.5 ppm, 0.15 ppm and 0.015 ppm, which is a 2-by-compound solution to be used to treat cells.
(§5) 4. […] At this time, the gradient concentration of the compound to be measured includes 2 μM, 200 nM, 20 nM, 2 nM and 0.2 nM, which is a 2-by-compound solution to be used to treat cells. […]
(§6) 5. Placing the 96-well cell culture plate in a plate reader to analyze it, and setting it to read chemical luminescence and record data.
(§7) Readout in each hole needs to be converted to a cell viability. The cell viability can be calculated by the following formula: […]
(§8) The post-processing data will be used to perform nonlinear regression analysis using a GraphPad Prism 5 analysis software to obtain a dose-effect curve, at the same time, a half-killing concentration to the cell is obtained by calculating the compounds DG-5, DG-6 to be measured and the positive compound STSP.

[2] = test system: human non-small cell lung cancer cells A549; assay: CellTiter-Glo cell viability, 72 hours; type: cell-based; conditions: duplicate wells
Source text: as §1, §2, §3, §4, §5, §6, §7, §8

SMILES: CN[C@@H]1C[C@H]2O[C@@](C)([C@@H]1OC)n1c3ccccc3c3c4c(c5c6ccccc6n2c5c31)C(=O)NC4 [STSP]
- Percentage of cell growth [1]: 78.5%
- Percentage of cell growth ([2]; A549, 100 nM): 31.2%
- Percentage of cell growth ([2]; A549, 1000 nM): 12.1%
